“Also recorded” adds a separate entry of the source.
What was measured:
[1] = molecular target: T1, Tdp1 (Homo sapiens, UniProt Q9NUW8); conditions: SPR, 1:1 binding model
[2] = molecular target: T1, Tdp1; format: biochemical

Amino acid sequences for entries named in this document (tags omitted).
UniProt Q9NUW8, whole entry: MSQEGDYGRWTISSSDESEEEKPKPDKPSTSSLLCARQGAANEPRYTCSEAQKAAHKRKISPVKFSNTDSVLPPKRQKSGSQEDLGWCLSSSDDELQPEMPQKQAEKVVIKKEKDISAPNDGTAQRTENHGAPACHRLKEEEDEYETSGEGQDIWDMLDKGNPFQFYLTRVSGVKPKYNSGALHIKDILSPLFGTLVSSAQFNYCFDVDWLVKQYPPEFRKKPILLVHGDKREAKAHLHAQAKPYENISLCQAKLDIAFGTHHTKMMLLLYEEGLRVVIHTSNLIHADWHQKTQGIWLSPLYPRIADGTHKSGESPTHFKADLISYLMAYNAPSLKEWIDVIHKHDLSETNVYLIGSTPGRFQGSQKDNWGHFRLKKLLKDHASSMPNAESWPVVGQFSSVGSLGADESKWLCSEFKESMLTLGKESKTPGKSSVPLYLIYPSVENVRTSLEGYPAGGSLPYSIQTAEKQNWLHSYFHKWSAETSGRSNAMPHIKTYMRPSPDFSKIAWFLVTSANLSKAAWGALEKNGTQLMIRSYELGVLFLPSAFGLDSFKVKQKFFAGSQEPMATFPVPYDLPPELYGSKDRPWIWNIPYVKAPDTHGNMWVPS

SMILES	kd [1]	Tdp1 inhibitory activity (in words) [2]
Cn1c2c(c3ccc(NC(=O)C(=O)O)cc3c1=O)C(=O)c1ccccc1-2 [Compound 14]	0.24 s⁻¹	–
CC(=O)Nc1ccc2c3c(n(CCCN)c(=O)c2c1)-c1ccccc1C3O (centres unmarked) [Compound 61]	–	not active; also recorded: abolished the activity

From PMC3542538 (Journal of medicinal chemistry, 2012)
